Reference: PubChem BioAssay AID1224863 (Southern Research Institute, 2016)
About 15 (0.1%) of roughly 10,000 compounds were called active.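 The calls were made as follows: active = highest signal at least 8 times the median of untreated cell-only control wells at some dose; inactive = the rest.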 Not all results are given here.

Chains of the proteins cited; added tags and fusions are not shown. A line that says so, or that is headed by a name, gives the form on record, which may keep a tag or linker.
UniProt P13569, with tags, fused parts or gaps F508del: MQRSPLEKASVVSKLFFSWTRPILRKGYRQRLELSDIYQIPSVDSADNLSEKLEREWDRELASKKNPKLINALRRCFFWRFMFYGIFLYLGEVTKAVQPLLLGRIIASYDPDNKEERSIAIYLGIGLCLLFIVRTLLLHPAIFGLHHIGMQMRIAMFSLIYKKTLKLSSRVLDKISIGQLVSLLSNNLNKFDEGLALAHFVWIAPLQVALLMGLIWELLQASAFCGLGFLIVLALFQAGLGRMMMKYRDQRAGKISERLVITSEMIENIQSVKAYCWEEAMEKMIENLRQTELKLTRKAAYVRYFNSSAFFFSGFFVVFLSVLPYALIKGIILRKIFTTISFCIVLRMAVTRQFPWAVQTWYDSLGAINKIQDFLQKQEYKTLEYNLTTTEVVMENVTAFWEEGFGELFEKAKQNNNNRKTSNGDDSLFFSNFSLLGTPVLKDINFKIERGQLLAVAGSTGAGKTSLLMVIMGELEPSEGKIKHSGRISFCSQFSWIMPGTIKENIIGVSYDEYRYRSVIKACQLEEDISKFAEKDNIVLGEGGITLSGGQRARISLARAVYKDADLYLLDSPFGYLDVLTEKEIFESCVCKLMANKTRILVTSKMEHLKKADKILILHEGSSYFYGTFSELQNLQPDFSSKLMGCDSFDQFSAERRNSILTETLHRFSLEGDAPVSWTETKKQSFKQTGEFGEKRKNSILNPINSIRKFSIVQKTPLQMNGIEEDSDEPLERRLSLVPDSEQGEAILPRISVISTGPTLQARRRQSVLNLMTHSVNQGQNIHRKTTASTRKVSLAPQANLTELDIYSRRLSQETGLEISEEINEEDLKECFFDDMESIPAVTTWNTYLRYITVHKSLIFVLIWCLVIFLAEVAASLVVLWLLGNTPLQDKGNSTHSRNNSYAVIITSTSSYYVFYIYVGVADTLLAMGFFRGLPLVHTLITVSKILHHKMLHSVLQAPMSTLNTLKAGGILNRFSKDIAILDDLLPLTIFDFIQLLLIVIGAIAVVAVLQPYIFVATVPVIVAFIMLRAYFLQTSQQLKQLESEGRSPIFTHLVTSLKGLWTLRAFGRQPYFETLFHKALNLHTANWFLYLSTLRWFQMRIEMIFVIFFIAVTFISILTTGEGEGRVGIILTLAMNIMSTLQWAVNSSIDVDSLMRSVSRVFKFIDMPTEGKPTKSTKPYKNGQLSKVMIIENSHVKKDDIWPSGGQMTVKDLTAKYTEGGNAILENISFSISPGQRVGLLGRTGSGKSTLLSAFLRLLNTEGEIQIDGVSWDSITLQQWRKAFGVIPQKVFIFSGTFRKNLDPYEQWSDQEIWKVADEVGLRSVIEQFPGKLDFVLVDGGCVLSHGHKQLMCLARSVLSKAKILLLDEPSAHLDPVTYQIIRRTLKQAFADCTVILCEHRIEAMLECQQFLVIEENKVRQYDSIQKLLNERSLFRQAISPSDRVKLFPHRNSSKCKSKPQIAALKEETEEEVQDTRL

Legend:
[1] = compounds raising F508del-CFTR protein level – cell-based, HeLa F508del-CFTR, immunofluorescence, viability, primary screen (AID 1224863); conditions: immunofluorescence total CFTR, 24 h, stronger effect = higher value; min viability: measured here: HeLa viability, alamarBlue, dose 20, library dosed in µg/mL unless noted; viability: measured here: primary viability 10 ug/mL, library dosed in µg/mL unless noted;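 as to fold increase: total CFTR protein by anti-CFTR immunofluorescence in fixed cells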
[2] = target: Cystic fibrosis transmembrane conductance regulator (Homo sapiens) (UniProt P13569); experiment: as above; conditions: immunofluorescence total CFTR, 24 h; fold increase: measured here: primary screen 10 ug/mL, library dosed in µg/mL, stronger effect = higher value unless noted; max fold increase: dose 10, library dosed in µg/mL, stronger effect = higher value unless noted; outcome: library dosed in µg/mL unless noted

Row | Compound | viability [1] | fold increase [2] | outcome [2]
1 | Cn1ccnc1COc1ccc(C(=O)O)cc1 | 89% | 1.02 | inactive
2 | Cc1cc(-c2nccn2C)c(=O)[nH]n1 | 99% | 1.08 | inactive
3 | Cc1cc(NC(=O)N2CCN(C(=O)OC(C)(C)C)CC2)no1 | 102% | 1.12 | inactive
4 | CC(C)CN1C(=O)c2ccc([N+](=O)[O-])cc2C1=O | 88% | 0.89 | inactive
5 | O=C1NC2(CCCCCC2)C(=O)N1CN1CCCCCCC1 | 76% | 0.99 | inactive
6 | Cc1cccc2nc(CSc3ccc4ccccc4n3)cc(=O)n12 | 83% | 1.04 | inactive
7 | O=[N+]([O-])c1cn(Cc2cn(-c3ccccc3)nc2-c2ccc(Cl)cc2)cn1 | 103% | 1.3 | inactive
8 | O=C(COc1cc(Cl)c(Cl)cc1Cl)N1CCN(C(=O)C2CCCO2)CC1 (stereo unspecified) | 99% | 0.97 | inactive
9 | CCN(CC)S(=O)(=O)c1ccc(S(=O)(=O)Nc2nc3ccccc3nc2N2CCCC2)cc1 | 92% | 1.04 | inactive
10 | Cc1nnc(COC(=O)C2=Cc3ccccc3OC2)o1 | 102% | 1.03 | inactive
11 | CN(C)C(=O)c1ccc(N2CCOC2=O)cc1 | 97% | 0.98 | inactive
12 | CCCCn1c(N)c(N(C)C(=O)CCS(=O)(=O)CC(C)C)c(=O)[nH]c1=O | 103% | 1 | inactive
13 | CN1CCC(CNC(=O)C23CC4CC(CC(Cl)(C4)C2)C3)c2ccccc21 (stereo unspecified) | 77% | 1.08 | inactive
14 | CC(c1nc2ccccc2s1)N(C)CN1C(=O)C2CC=CCC2C1=O (stereo unspecified) | 91% | 1.02 | inactive
15 | COC(=O)/C=C/c1ccc(OCC(=O)c2ccc(OC(F)F)cc2)c(OC)c1 | 94% | 1.05 | inactive
16 | CCOc1c(Br)cc(CNC(C)C2CCCO2)cc1Br (stereo unspecified) | 99% | 1.09 | inactive
17 | Cc1cc(C(C)(C)C)ccc1Oc1ccc2nnnn2n1 | 71% | 1 | inactive
